Test: Stable therapeutic warfarin dose by CYP2C9, VKORC1 and rs2108622 (CYP4F2) genotype, 424 subjects
Assay type: in vivo, human
Description: The initial cohort was recruited at Marshfield Clinic, a multi-specialty group practice in Wisconsin as described.^6, 16 Patients were excluded from the study if they were known to have cancer, renal or hepatic insufficiency, or congestive heart failure.
The targeted human DMET 1.0 assay (Affymetrix, Inc, Santa Clara, Calif.) utilizes molecular inversion probes and GeneChip universal tag arrays to target 1228 single nucleotide polymorphisms (SNP) within 170 genes for metabolic enzymes and transport and regulatory proteins (Table 2).
The laboratory protocol followed the standard process described in the Targeted Genotyping System User Guide^25 except for a preliminary polymerase chain reaction (PCR)-amplification step aimed at resolving genotypes from 29 SNPs in regions containing pseudogenes and close homologues. GeneChip Targeted Genotyping Analysis software was used to make genotype calls and generate QC metrics including call rates, average signal, cluster quality, Hardy-Weinberg equilibrium, and reproducibility. […] Genotypes represented by the remaining 1217 SNP assays were called according to either predefined boundaries (derived from historical training sets) or dynamic clustering using the current data set. […] The remaining polymorphisms target rare mutations or SNPs prevalent in other racial groups.
VKORC1 genotypes were determined on 436 Marshfield Clinic samples as described^6 and on the remaining 61 samples using Invader® chemistry in a laboratory test developed with analyte specific reagents manufactured by Third Wave Technologies (TWT, Madison, Wis.). The laboratory developed assay used analyte-specific reagents that detect CYP2C9*2, CYP2C9*3, and VKORC1 (position −1639).^26

Compound: CC(=O)CC(c1ccccc1)c1c(O)c2ccccc2oc1=O (centres unmarked) [warfarin]
- Geometric Mean warfarin dose (CYP2C9 *1/*2, VKORC1 CG, rs2108622 CC, N=22): 23.2 mg/week
- Geometric Mean warfarin dose (CYP2C9 *1/*2, VKORC1 CG, rs2108622 CT, N=21): 26.3 mg/week
- Geometric Mean warfarin dose (CYP2C9 *1/*3, VKORC1 CC, rs2108622 CC, N=4): 13.0 mg/week
- Geometric Mean warfarin dose (CYP2C9 *1/*3, VKORC1 CG, rs2108622 CT, N=13): 24.6 mg/week
- Geometric Mean warfarin dose (CYP2C9 *1/*3, VKORC1 CG, rs2108622 TT, N=2): 24.7 mg/week
- Geometric Mean warfarin dose (CYP2C9 *1/*3, VKORC1 GG, rs2108622 CT, N=7): 23.0 mg/week
- Geometric Mean warfarin dose (CYP2C9 *2/*3, VKORC1 CC, rs2108622 CT, N=1): 12.5 mg/week
- Geometric Mean warfarin dose (CYP2C9 *2/*3, VKORC1 CG, rs2108622 CC, N=1): 12.0 mg/week

From patent publication US20110189675A1, “Method For Administering Anticoagulation Therapy” (Marshfield Clinic, priority 2007, published 2011)
